Patent publication US20060240535A1, “Carbonyl reductase from lactococcus lactis” (GEORGIA TECH RESEARCH CORPORATION, priority 2004, published 2006)

Tested on: carbonyl reductase from Lactococcus lactis
Experiment: CRLL activity assay (decrease of NADPH absorption); substrate table of the isolated carbonyl reductase
Format: biochemical
Details: Substrate (20 mM)
Excerpt: The construct crll-pkk223-3 as well as crll-his-pkk223-3 were both transformed separately into the E. coli host strain HB101 for expression.

Structure (SMILES): O=C1CCc2ccccc21 [1-indanone]
- Activity (U/mL): 0 U/mL
